# Assay results from publication PMC7460505.
# This is a selection: effects in other tests are not listed, and their absence says nothing.
# Legend:
# [1] = system: monoclonal anti-TNT antibody EW75C (mouse IgG1); assay: indirect competitive ELISA
# [2] = system: monoclonal anti-2,4,6-trinitrotoluene (TNT) antibody A1.1.1 (mouse, subtype IgG1); assay: indirect competitive ELISA; also kinetic-competition immunofluorometric biosensor with Dy-654-labeled antibody
structure (smiles),measurement,setting,value
Cc1c([N+](=O)[O-])cc([N+](=O)[O-])cc1[N+](=O)[O-],IC50,[1],36 nM
same,IC50,[2],1.2 nM
